Results reported in paper PMC11005446 (European journal of pharmaceutical sciences : official …, 2021).
Where two headings read alike, the source gives them in different places.

Tests used:
OATP1B1 = details: cited from earlier work
OATP1B1 and OATP1B3 = details: Hepatocytes, substrate rosuvastatin; R-value model
[1] = OATP1B1-expressing cell line, substrate rosuvastatin, ref Farasyn et al., 2019

| Co-Incubation R (OATP1B1 and OATP1B3) | SMILES | Pre+Co-Incubation R (OATP1B1; [1]) | Co-Incubation R (OATP1B1; [1]) | Pre+Co-Incubation R (OATP1B1) |
| --- | --- | --- | --- | --- |
| – | CO[C@H]1C[C@@H]2CC[C@@H](C)[C@@](O)(O2)C(=O)C(=O)N2CCCC[C@H]2C(=O)O[C@H]([C@H](C)C[C@@H]2CC[C@@H](O)[C@H](OC)C2)CC(=O)[C@H](C)/C=C(\C)[C@@H](O)[C@@H](OC)C(=O)[C@H](C)C[C@H](C)/C=C/C=C/C=C/1C [SIR, sirolimus] | 1.01 (1.01–1.03) | – | – |
| 1.02 (1.02–1.03) | CO[C@H]1C[C@@H]2CC[C@@H](C)[C@@](O)(O2)C(=O)C(=O)N2CCCC[C@H]2C(=O)O[C@H]([C@H](C)C[C@@H]2CC[C@@H](OCCO)[C@H](OC)C2)CC(=O)[C@H](C)/C=C(\C)[C@@H](O)[C@@H](OC)C(=O)[C@H](C)C[C@H](C)/C=C/C=C/C=C/1C [EVR, everolimus] | – | 1.03 (1.02–1.09) | 1.23 (1.10–1.42) |
